Laboratory results: patent US10849907B2, “Imidazopyridine derivatives and the use thereof as medicament” (Boehringer Ingelheim International GmbH, priority 2017, dated 2020)

Chains of the proteins cited; added tags and fusions are not shown. Residues count along the entry.
UniProt Q13224, 27-1484 limits assumed: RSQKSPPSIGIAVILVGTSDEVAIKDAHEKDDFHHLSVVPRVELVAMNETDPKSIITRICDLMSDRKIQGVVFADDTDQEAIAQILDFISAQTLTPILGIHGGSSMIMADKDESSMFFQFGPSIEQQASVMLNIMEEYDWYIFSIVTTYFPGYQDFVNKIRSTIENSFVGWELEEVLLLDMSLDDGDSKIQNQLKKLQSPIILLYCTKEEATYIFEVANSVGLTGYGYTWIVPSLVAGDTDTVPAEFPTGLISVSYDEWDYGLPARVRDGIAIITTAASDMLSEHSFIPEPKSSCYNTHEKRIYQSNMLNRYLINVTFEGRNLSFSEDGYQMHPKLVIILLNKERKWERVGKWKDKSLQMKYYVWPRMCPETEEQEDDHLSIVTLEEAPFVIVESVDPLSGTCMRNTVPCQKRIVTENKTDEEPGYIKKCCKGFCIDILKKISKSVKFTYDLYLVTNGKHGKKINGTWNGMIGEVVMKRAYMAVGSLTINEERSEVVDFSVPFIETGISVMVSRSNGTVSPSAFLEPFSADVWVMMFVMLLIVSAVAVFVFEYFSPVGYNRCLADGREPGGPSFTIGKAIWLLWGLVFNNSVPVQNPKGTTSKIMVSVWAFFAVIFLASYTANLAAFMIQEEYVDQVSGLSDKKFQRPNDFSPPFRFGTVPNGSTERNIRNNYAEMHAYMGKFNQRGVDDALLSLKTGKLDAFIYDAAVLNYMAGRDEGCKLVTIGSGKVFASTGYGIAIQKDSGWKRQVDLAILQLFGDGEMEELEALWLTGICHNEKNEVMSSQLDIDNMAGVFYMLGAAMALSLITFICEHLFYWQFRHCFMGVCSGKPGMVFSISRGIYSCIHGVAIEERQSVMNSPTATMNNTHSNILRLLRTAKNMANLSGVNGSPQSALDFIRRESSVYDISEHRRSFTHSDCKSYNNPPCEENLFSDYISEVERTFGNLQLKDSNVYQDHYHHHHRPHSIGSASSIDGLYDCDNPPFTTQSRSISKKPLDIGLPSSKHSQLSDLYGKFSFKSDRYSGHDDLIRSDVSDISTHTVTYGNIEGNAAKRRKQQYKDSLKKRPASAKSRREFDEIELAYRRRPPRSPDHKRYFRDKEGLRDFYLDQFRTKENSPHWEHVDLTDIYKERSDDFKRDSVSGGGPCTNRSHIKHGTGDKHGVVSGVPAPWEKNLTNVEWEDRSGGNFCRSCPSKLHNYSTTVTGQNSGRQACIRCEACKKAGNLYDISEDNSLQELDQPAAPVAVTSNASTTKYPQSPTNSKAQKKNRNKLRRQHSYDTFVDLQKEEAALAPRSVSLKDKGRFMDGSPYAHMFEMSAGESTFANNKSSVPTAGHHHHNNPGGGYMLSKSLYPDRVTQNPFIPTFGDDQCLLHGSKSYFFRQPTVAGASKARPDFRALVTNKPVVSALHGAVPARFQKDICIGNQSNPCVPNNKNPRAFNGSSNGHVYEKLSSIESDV

Molecular target: NMDA NR1/NR2B receptor (Homo sapiens, UniProt Q13224)
Assay: In vitro NMDA NR1/NR2b cell assay (FLIPR, intracellular calcium induced by glycine/glutamate)
Assay type: cell-based

`O=C(Cc1cc(Cl)cc(Cl)c1)N1CCCC(c2nc3cc(Cl)ccc3[nH]2)C1` (stereo not shown) was tested, and the “negative allosteric modulation of the NR2B ion channel (in words)” value (“negative allosteric modulation” for short) was “rather poor negative allosteric modulation of the NR2B ion channel or no activity at all”.

In the case of `O=C(Cc1cc(Cl)cc(Cl)c1)N1CCOC(c2nc3nc(Cl)ccc3[nH]2)C1` (stereo not shown), the “negative allosteric modulation” value is reported as “rather poor negative allosteric modulation of the NR2B ion channel or no activity at all”.

`O=C(Cc1cc(Cl)cc(Cl)c1)N1CCC[C@H](c2nc3cc(Cl)ccc3[nH]2)C1` was tested, and the “negative allosteric modulation” value was “rather poor negative allosteric modulation of the NR2B ion channel or no activity at all”.

In the case of `O=C(Cc1cc(Cl)cc(Cl)c1)N1CCC[C@@H](c2nc3cc(Cl)ccc3[nH]2)C1`, the “negative allosteric modulation” value is reported as “rather poor negative allosteric modulation of the NR2B ion channel or no activity at all”.

With `O=C(Cc1cc(Cl)cc(Cl)c1)N1CCCC(c2nc3cc(F)ccc3[nH]2)C1` (stereo not shown) the “negative allosteric modulation” value was “rather poor negative allosteric modulation of the NR2B ion channel or no activity at all”.

In the case of `O=C(NCc1cc(Cl)cc(Cl)c1)N1CCCC(c2nc3nc(Cl)ccc3[nH]2)C1` (stereo not shown), the “negative allosteric modulation” value is reported as “rather poor negative allosteric modulation of the NR2B ion channel or no activity at all”.

With `O=C(Cc1cc(Cl)cc(Cl)c1)N1CCCC(c2nc3cc(Cl)c(Cl)cc3[nH]2)C1` (stereo not shown) the “negative allosteric modulation” value was “rather poor negative allosteric modulation of the NR2B ion channel or no activity at all”.
